Values quoted from earlier work as cited in patent US5374661A (Sano Corporation, priority 1993, dated 1994).

What was measured:
[1] = in vivo

O=C(O)Cc1ccccc1Nc1c(Cl)cccc1Cl [Diclofenac]
arachidonic acid availability (in words) (arachidonic acid): reduces arachidonic acid availability by inhibiting its release and stimulating its reuptake
pharmacological activity (in words) [1]: demonstrates anti-inflammatory, antipyretic, and analgesic activity
